# T1: YoaA-χ helicase complex (wild type) (E. coli, UniProt P76257 1-636; P28905 1-147)
# T1 sequence (looked up) 1: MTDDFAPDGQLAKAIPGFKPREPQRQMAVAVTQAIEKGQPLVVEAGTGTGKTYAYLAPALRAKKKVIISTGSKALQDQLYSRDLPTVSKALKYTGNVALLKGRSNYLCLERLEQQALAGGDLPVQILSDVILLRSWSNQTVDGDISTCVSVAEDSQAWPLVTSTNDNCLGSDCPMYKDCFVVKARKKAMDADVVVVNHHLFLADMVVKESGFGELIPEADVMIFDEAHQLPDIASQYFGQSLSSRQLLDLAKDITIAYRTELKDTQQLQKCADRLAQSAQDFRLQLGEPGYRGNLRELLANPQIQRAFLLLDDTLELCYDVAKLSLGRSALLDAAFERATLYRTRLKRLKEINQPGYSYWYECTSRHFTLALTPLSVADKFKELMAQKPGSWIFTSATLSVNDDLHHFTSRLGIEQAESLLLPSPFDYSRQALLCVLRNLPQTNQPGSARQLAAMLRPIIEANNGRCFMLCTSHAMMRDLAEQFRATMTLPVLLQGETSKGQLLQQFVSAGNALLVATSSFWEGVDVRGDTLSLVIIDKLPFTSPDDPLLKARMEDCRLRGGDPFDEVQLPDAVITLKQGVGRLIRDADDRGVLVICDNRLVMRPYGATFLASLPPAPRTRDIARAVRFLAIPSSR
# T1 sequence (looked up) 2: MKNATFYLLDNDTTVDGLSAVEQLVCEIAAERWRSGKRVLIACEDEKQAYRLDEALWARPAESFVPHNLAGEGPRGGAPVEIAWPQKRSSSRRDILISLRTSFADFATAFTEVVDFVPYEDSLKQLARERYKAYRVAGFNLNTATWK
# T2: DinG helicase (E. coli, UniProt P27296 1-716)
# T2 sequence (looked up): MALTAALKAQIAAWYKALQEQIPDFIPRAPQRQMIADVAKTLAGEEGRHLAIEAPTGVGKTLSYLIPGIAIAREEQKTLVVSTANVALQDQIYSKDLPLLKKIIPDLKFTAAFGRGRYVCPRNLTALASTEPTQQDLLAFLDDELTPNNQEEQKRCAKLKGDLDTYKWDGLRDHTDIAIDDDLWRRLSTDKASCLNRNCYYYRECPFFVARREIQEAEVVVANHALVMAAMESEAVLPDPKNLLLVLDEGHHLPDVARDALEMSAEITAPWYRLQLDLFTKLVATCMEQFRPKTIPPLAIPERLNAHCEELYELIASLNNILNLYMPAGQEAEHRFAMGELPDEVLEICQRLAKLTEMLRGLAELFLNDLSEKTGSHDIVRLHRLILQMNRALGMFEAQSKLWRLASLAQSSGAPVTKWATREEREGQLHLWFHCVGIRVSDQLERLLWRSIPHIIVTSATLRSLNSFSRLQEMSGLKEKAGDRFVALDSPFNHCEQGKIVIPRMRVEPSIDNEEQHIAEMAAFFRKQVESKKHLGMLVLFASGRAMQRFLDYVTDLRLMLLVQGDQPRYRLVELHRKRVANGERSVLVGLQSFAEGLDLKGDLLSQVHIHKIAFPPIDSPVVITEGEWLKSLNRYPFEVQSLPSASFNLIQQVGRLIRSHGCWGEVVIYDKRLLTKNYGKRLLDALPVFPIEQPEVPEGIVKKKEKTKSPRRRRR
# Legend:
# [1] = molecular target: T1, YoaA-χ helicase complex (wild type); assay: native gel or EMSA
# [2] = molecular target: T2, DinG helicase; assay: native gel or EMSA
binder,measurement,setting,value
"Single-stranded DNA binding protein (SSB), wild type (natural protein, E. coli, UniProt P0AGE0 1-178, looked up) MASRGVNKVILVGNLGQDPEVRYMPNGGAVANITLATSESWRDKATGEMKEQTEWHRVVLFGKLAEVASEYLRKGSQVYIEGQLRTRKWTDQSGQDRYTTEVVVNVGGTMQMLGGRQGGGAPAGGNIGGGQPQGGWGQPQQPQGGNQFSGGAQSRPQQSAPAAPSNEPPMDFDDDIPF",binding result,[1],binds
same,binding result,[2],binds
